The values that follow are results of earlier work, collected in article PMC7081907, “Discovery and Selection of Hepatitis B Virus-Derived T Cell Epitopes for Global Immunotherapy Based on Viral Indispensability, Conservation, and HLA-Binding Strength” (Journal of Virology, 2020).

The data set deals with HBV-specific T cells. The note with it: cumulative over papers, responder = positive multimer staining and/or IFN-γ ELISPOT, ref Hepitopes database [24], [49], cited from earlier work; for % responders (no. of responders/total no. of subjects tested), HCC: HBV-positive HCC patients. An excerpt:
TABLE 1 Ranking of reported epitopes for HBx based on conservation and function^a | column: % responders (no. of responders/total no. of subjects tested) / Acute; % responders (no. of responders/total no. of subjects tested) / Chronic; % responders (no. of responders/total no. of subjects tested) / HCC || TABLE 2 Ranking of reported epitopes for polymerase based on conservation and function^a | column: % responders (no. of responders/total no. of subjects tested) / Acute; % responders (no. of responders/total no. of subjects tested) / Chronic; % responders (no. of responders/total no. of subjects tested) / HCC
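Also: responder rates refer to previously reported epitopes of HBx or polymerase.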

For FLLAQFTSAI, the “% responders (no. of responders/total no. of subjects tested), HCC” value was 0 (0/10) %.

In the case of FPHCLAFSYM, the “% responders (no. of responders/total no. of subjects tested), Acute” value (patients with acute/resolved HBV infection, asterisk = significantly more prevalent than in other groups) is recorded as 0 (0/12) %.

Take KLHLYSHPI [p500-508]: the “% responders (no. of responders/total no. of subjects tested), HCC” value was 0 (0/10) %.

Regarding LLAQFTSAI, the “% responders (no. of responders/total no. of subjects tested), HCC” value is reported as 0 (0/10) %.
